Experimental findings from patent US20130053410A1, “SUBSTITUTED HETEROARYL 2',3',7',7A'-TETRAHYDROSPIRO[PYRROLE-3,6'-PYRROLO[1,2-C]IMIDAZOLE]-1',2(1H,5'H)-DIONE” (priority 2011, published 2013) are described below.

The chains behind the UniProt entries cited, without tags or fusion partners.
UniProt Q00987, whole entry: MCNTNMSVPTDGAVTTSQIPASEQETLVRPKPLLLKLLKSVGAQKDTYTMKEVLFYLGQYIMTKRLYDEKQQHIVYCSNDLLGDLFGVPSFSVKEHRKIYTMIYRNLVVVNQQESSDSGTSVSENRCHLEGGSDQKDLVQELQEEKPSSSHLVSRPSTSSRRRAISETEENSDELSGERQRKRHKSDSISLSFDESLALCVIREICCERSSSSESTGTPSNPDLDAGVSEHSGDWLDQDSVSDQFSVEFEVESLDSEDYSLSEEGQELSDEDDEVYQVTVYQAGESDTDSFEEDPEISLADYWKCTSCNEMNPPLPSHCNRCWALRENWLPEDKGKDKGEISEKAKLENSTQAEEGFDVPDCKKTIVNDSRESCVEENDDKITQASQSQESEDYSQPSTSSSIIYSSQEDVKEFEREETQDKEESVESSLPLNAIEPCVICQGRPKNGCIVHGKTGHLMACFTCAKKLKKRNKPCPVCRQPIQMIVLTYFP

This experiment addresses interaction between p53 and MDM2 proteins (recombinant GST-tagged MDM2, biotinylated p53 peptide) (Homo sapiens, UniProt Q00987). In words: HTRF assay of inhibition of the p53-MDM2 interaction. The conditions noted are these: read-out: IC50: bsa: 0.02%. As to the method:
The ability of the compounds to inhibit the interaction between p53 and MDM2 proteins was measured by an HTRF (homogeneous time-resolved fluorescence) assay in which recombinant GST-tagged MDM2 binds to a peptide that resembles the MDM2-interacting region of p53. Binding of GST-MDM2 protein and p53-peptide (biotinylated on its N-terminal end) is registered by the FRET (fluorescence resonance energy transfer) between Europium (Eu)-labeled anti-GST antibody and streptavidin-conjugated Allophycocyanin (APC).
[…] Add 10 uL diluted compounds (1:5 dilution in reaction buffer) to each well, mix by shaking. Add 20 uL biotinylated p53 peptide (180 nM working solution) in reaction buffer to each well and mix on shaker. Incubate at 37° C. for 1 h. Add 20 uL streptavidin-APC and Eu-anti-GST antibody mixture (6 nM Eu-anti-GST and 60 nM streptavidin-APC working solution) in TBS buffer with 0.2% BSA, shake at room temperature for 30 minutes and read using a TRF-capable plate reader at 665 and 615 nm (Victor 5, Perkin ElmerWallac). If not specified, the reagents were purchased from Sigma Chemical Co.
Background: TR-FRET usually uses a lanthanide donor and a delayed reading to cut background.

By IC50 is commonly meant the concentration that inhibits the measured activity by half. Turning to `COc1cc(C(=O)O)ccc1N1CN2[C@@H](CC(C)(C)C)[C@@]3(C(=O)Nc4cccnc43)[C@@H](c3cccc(Cl)c3F)[C@@H]2C1=O` (relative stereo), the IC50 is 484 nM.
Next, `COc1cc(N2CN3[C@@H](CC(C)(C)C)[C@@]4(C(=O)Nc5ccncc54)[C@@H](c4cccc(Cl)c4F)[C@@H]3C2=O)ccc1C(N)=O` (relative stereo): 103 nM.
